Test results: the NIST ThermoML archive (doi:10.1016/j.fluid.2013.11.031)

Experiment: xn = mol fraction of the nth substance listed
Settings: Liquid, Vibrating tube method

CCCCOCCCC [dibutyl ether] + CCCO
mass density [kg/m3]
Settings	x1 = 0.15	x1 = 0.325	x1 = 0.5	x1 = 0.675	x1 = 0.85
293.15 K, 100 kPa	794.5	786.5	780.2	775.5	771.5
293.15 K, 10000 kPa	802.3	794.3	788.3	783.6	779.7
293.15 K, 20000 kPa	809.2	801.5	795.7	790.9	787.2
293.15 K, 30000 kPa	815.7	808.1	802.4	797.7	794
293.15 K, 40000 kPa	821.7	814.3	808.7	804.1	800.4
293.15 K, 50000 kPa	827.4	820	814.5	810	806.4
293.15 K, 60000 kPa	832.7	825.3	820	815.5	811.9
293.15 K, 70000 kPa	837.8	830.5	825.2	820.7	817.2
293.15 K, 80000 kPa	842.6	835.4	830.2	825.7	822.1
293.15 K, 90000 kPa	847.2	840	834.8	830.4	826.9
293.15 K, 100000 kPa	851.7	844.4	839.2	834.8	831.5
293.15 K, 110000 kPa	855.9	848.7	843.5	839.2	835.8
293.15 K, 120000 kPa	859.9	852.8	847.6	843.3	840
293.15 K, 130000 kPa	863.8	856.7	851.5	847.3	844
293.15 K, 140000 kPa	867.6	860.5	855.4	851.2	847.9
313.15 K, 100 kPa	777.8	769.4	762.9	757.9	753.7
313.15 K, 10000 kPa	786.5	778.1	771.9	767.2	763
313.15 K, 20000 kPa	794.2	786.2	780.1	775.5	771.4
313.15 K, 30000 kPa	801.4	793.5	787.5	783	779
313.15 K, 40000 kPa	807.9	800.1	794.3	789.8	786
313.15 K, 50000 kPa	814	806.3	800.6	796.1	792.4
313.15 K, 60000 kPa	819.7	812.1	806.5	802	798.4
313.15 K, 70000 kPa	825.1	817.6	812.1	807.6	804
313.15 K, 80000 kPa	830.2	822.8	817.3	812.9	809.4
313.15 K, 90000 kPa	835	827.7	822.3	817.8	814.4
313.15 K, 100000 kPa	839.9	832.7	827.2	822.8	819.4
313.15 K, 110000 kPa	844.3	837.2	831.8	827.6	824.1
313.15 K, 120000 kPa	848.7	841.4	836.3	832.1	828.6
313.15 K, 130000 kPa	852.8	845.7	840.4	836.3	832.8
313.15 K, 140000 kPa	856.8	849.7	844.4	840.4	836.9
333.15 K, 100 kPa	760.7	751.7	744.9	740.2	735.9
333.15 K, 10000 kPa	770.5	761.7	755.3	750.7	746.6
333.15 K, 20000 kPa	779.1	770.7	764.5	760	756
333.15 K, 30000 kPa	786.6	778.5	772.5	768.1	764.2
333.15 K, 40000 kPa	793.7	785.7	779.8	775.5	771.8
333.15 K, 50000 kPa	800.3	792.4	786.7	782.5	778.8
333.15 K, 60000 kPa	806.4	798.7	793.1	788.9	785.2
333.15 K, 70000 kPa	812.2	804.6	799.1	794.9	791.3
333.15 K, 80000 kPa	817.8	810.3	804.9	800.8	797.2
333.15 K, 90000 kPa	823	815.6	810.2	806.1	802.5
333.15 K, 100000 kPa	828.1	820.7	815.5	811.5	807.9
333.15 K, 110000 kPa	832.8	825.5	820.3	816.2	812.7
333.15 K, 120000 kPa	837.3	830.1	825	820.9	817.4
333.15 K, 130000 kPa	841.5	834.4	829.3	825.2	821.7
333.15 K, 140000 kPa	845.6	838.5	833.5	829.4	825.9
353.15 K, 100 kPa	741.7	732.4	725.7	720.9	717.4
353.15 K, 10000 kPa	752.6	743.8	737.6	732.8	729.4
353.15 K, 20000 kPa	762.4	753.9	748	743.4	740
353.15 K, 30000 kPa	771.1	762.9	757.2	752.8	749.4
353.15 K, 40000 kPa	779	771.1	765.4	761.1	757.8
353.15 K, 50000 kPa	786.3	778.5	773.1	768.7	765.6
353.15 K, 60000 kPa	792.9	785.2	779.9	775.7	772.5
353.15 K, 70000 kPa	799.3	791.7	786.5	782.3	779.1
353.15 K, 80000 kPa	805	797.6	792.4	788.2	785.1
353.15 K, 90000 kPa	810.5	803.1	798	793.9	790.8
353.15 K, 100000 kPa	815.6	808.3	803.3	799.2	796.1
353.15 K, 110000 kPa	820.7	813.4	808.4	804.4	801.4
353.15 K, 120000 kPa	825.4	818.2	813.2	809.3	806.3
353.15 K, 130000 kPa	829.9	822.8	817.8	813.9	810.9
353.15 K, 140000 kPa	834.3	827.2	822.3	818.3	815.4
